Data published in US8609699B2, “Oxotetrahydrofuran-2-yl-benzimidazole derivative” (MSD K.K., priority 2008, dated 2013).

Chains of the proteins cited; added tags and fusions are not shown. Residues count along the entry.
UniProt P35557, 1-466 isoform 2: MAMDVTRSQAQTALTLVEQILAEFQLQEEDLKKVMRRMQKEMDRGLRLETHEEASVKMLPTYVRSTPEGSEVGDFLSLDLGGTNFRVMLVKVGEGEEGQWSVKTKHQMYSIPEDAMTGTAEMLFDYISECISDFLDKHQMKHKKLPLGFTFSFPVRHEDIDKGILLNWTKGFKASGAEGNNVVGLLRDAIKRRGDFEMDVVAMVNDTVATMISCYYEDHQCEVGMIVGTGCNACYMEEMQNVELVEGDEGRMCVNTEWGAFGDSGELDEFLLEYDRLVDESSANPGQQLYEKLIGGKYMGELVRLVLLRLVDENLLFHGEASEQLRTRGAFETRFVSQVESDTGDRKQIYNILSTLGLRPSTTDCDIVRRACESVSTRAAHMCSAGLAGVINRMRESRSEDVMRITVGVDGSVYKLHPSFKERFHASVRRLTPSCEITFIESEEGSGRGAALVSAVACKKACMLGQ

Target: recombinant human liver GK (Homo sapiens, UniProt P35557)
Test: Glucokinase-activating effect (Thio-NADH, G6PDH-coupled assay)
Conditions: final glucose 2.5 mM; 30° C; racemates, comparison with WO2007/007910
Description: The excellent glucokinase-activating effect of the compounds of formula (I) may be determined by a method described in literature (for example, Diabetes, Vol. 45, pp. 1671-1677, 1996), or in accordance with it.
The glucokinase activity may be determined not by directly measuring glucose-6-phosphate but by measuring the level of Thio-NADH, which is produced when a reporter enzyme, glucose-6-phosphate dehydrogenase produces phosphogluconolactone from glucose-6-phosphate, and based on the level, the degree of glucokinase activation by the compound tested may be determined.
In this assay, used was a recombinant human liver GK, which was expressed by E. coli as a FLAG fusion protein therein and was purified by ANTIFLAG M2 AFFINITY GEL (Sigma). […]
After the start of the reaction, the increase in the absorbance at 405 nm was measured for 12 minutes at intervals of 30 seconds, and the increase for the first 5 minutes was used for assessing the compound tested. FLAG-GK was added so that the absorbance increase after 5 minutes in the presence of 1% DMSO could be from 0.04 to 0.06.
The OD level of the DMSO control was set as 100%; and the OD level of the test compound at different concentrations was determined. […]
The GK activating effect of the compounds of the invention was measured according to the method as above, and the results are shown in Table 5 below.

- EC50: 1870 nM
Compound: N#Cc1ccc(Oc2cc3nc(-c4ccccn4)[nH]c3cc2C2CCC(=O)O2)cn1 (racemic)
